Key:
GAPDH mRNA [1] = assay: GAPDH mRNA knockdown in differentiated Neuro-2a cells (RT-qPCR); type: cell-based; conditions: Neuro2a − CQ
Description: (§1) These GAPDH siRNA-peptide conjugates were then evaluated in HEK293 cells and the neuronal cell line, neuro2A.

GAPDH mRNA [2] = assay: GAPDH mRNA knockdown in HEK293 cells overexpressing SORT-1 (RT-qPCR); type: cell-based; conditions: HEK293 + SORT1 − CQ
Description: as §1

Q: What does the source list for “6-azidohexanoic Acid-(bAla)(Sar)(Sar)(Sar)(Sar)APRWDAPLRDPALRQ(B13)(G48) [Peptide 2-GAPDH6-BCN]”?
A: GAPDH mRNA % knockdown compared to untreated cells (GAPDH mRNA [1]): 1%; GAPDH mRNA % knockdown compared to untreated cells (GAPDH mRNA [2]): 47%
